Data from patent US20230012570A1, “BICYCLIC COMPOUND USED AS SELECTIVE ANDROGEN RECEPTOR MODULATOR” (MEDSHINE DISCOVERY INC., priority 2019, published 2023).

Protein sequences, listed by entry. Tags and fused reporters are not part of them.
UniProt P10275, whole entry: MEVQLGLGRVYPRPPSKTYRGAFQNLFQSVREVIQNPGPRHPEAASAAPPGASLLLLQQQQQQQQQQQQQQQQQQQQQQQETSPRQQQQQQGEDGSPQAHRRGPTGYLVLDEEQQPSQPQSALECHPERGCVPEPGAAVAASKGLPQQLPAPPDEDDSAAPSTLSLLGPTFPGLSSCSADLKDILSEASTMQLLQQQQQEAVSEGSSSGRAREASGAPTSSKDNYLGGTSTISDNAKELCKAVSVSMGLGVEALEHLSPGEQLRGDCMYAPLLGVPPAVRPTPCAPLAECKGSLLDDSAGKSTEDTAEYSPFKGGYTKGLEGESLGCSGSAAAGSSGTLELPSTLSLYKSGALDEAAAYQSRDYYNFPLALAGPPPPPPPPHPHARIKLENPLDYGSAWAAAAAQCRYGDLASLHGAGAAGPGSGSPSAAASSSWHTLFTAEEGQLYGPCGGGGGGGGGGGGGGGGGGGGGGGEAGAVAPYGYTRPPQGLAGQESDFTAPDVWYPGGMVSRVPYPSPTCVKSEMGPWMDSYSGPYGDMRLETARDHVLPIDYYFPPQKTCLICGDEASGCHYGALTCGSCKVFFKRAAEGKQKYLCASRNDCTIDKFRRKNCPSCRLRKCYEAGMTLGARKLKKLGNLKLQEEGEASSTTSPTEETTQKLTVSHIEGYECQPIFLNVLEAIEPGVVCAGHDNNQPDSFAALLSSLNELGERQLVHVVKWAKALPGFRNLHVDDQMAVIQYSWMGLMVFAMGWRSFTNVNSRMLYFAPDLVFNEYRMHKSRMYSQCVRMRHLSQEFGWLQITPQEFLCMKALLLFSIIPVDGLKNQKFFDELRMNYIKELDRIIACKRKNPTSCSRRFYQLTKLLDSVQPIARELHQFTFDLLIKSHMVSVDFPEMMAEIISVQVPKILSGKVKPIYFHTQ
UniProt P33261, whole entry: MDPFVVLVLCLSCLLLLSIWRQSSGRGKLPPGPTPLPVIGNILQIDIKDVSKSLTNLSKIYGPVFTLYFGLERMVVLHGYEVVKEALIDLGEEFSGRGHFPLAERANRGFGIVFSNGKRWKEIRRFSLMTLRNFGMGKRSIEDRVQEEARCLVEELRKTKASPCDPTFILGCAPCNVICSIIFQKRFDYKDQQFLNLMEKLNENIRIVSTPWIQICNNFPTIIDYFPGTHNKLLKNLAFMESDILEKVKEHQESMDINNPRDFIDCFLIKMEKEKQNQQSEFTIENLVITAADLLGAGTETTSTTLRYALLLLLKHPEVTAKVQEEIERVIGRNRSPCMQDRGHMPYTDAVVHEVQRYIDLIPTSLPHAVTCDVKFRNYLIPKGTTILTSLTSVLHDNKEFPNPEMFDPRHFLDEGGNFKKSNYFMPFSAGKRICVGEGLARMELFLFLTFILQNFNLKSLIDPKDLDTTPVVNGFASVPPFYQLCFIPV
UniProt P10635, whole entry: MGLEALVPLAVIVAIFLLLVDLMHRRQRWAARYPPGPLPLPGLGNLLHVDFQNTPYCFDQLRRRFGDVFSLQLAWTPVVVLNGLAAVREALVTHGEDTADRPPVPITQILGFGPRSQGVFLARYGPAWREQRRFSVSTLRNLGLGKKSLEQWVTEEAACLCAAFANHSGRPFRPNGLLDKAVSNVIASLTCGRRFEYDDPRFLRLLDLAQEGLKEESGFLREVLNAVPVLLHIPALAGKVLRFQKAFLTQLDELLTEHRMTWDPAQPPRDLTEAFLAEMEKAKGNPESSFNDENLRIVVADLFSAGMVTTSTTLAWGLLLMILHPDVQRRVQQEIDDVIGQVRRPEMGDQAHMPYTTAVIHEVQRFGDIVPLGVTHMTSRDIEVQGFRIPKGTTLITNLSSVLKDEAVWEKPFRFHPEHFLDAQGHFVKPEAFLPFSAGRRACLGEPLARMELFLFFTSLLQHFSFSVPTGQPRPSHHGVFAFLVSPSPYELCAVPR
UniProt P08684, whole entry: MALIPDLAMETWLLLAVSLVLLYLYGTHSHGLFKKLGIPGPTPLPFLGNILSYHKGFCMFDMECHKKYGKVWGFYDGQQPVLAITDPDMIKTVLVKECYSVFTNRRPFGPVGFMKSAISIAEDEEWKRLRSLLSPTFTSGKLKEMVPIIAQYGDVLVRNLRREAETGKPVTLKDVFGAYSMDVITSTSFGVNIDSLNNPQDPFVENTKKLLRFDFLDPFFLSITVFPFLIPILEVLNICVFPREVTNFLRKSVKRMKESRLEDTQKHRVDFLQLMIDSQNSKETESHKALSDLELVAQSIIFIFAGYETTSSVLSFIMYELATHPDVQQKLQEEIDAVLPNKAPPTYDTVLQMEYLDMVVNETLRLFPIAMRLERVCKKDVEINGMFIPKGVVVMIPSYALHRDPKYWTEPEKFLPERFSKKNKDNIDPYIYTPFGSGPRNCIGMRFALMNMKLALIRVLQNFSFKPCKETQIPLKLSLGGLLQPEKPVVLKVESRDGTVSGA
UniProt P11712, whole entry: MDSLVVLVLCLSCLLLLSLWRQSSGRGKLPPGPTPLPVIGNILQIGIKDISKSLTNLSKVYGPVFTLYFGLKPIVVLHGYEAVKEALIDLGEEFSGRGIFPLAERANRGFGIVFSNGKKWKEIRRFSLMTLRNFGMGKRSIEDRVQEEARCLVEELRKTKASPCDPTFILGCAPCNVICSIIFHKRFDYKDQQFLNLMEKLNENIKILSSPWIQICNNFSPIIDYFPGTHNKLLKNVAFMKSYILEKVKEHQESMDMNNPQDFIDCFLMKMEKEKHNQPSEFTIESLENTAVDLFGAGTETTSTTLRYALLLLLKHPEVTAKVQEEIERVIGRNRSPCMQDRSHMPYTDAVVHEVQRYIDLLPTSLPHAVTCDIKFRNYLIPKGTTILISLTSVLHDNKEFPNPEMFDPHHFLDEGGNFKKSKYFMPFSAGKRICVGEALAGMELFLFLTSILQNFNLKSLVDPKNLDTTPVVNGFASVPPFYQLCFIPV
UniProt P05177, whole entry: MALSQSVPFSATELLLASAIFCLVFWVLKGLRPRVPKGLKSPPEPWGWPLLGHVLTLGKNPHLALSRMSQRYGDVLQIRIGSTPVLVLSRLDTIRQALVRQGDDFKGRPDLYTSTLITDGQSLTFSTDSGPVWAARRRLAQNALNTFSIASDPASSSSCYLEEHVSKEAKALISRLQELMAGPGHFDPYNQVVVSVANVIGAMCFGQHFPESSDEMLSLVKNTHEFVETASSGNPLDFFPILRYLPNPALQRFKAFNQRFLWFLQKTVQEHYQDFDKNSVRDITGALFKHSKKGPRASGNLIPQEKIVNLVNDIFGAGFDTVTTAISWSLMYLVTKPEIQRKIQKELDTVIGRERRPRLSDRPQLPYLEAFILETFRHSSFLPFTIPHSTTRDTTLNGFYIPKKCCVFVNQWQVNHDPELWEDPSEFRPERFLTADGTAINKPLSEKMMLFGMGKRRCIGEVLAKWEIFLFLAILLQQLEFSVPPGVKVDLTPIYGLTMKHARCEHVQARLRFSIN

Key:
androgen receptor (AR) = androgen receptor (AR) (Homo sapiens, UniProt P10275); assay: Agonistic effect of test compounds on androgen receptor (AR), LiveBLAzer FRET reporter cell assay; conditions: read-out: EC50, agonist activity on androgen receptor; AR cells, 16 hours incubation, 10 concentrations
Method: Experimental Embodiment 1: Agonistic Effect of Test Compounds on Androgen Receptor (AR)
1. Preparation of Compounds, Placing in Plates:
1.1 Preparation of compounds: the test compounds were diluted to the working concentration, and each compound was diluted by 4 times with Echo for 10 concentration gradients, and the compounds were added to a 384-well cell plate according to the microplate layout diagram, with 200 nL per well;
1.2 AR cell assay medium: 87% Opti-MEM (reduced serum medium), 10% Dialyzed FBS (dialyzed fetal bovine serum), 1% NEAA (non-essential amino acids), 1% sodium pyruvate and 1% penicillin-streptomycin;
1.3 culture medium, trypsin and Dulbecco's phosphate buffer were preheated in a 37° C. water bath;
1.4 the original medium in the cell culture flask was removed, and the cells were washed once with 6 mL of Dulbecco's phosphate buffer; […]
2. Reading the Board and Analyzing Data: […]
2.3 the cell culture plate was taken out, and 8μL of 6×substrate buffer was added to each well, shaken for 1 minute, and centrifuged at 1000 rpm for 10 seconds; after sealing the membrane, the cells were incubated at 23° C. for 2 hours, and the plate was read with Envision, and the curve EC50 value was fitted by Prism software.

CYP2C19 = CYP2C19 (Homo sapiens, UniProt P33261); assay: Human liver microsomal CYP inhibition experiment, CYP2C19; conditions: read-out: IC50 CYP2C19; mixed human liver microsomes, 10 min incubation with NADPH
Method: (§1) Experiment Embodiment 4: Human Liver Microsomal CYP Inhibition Experiment
(§2) The inhibitory effects of the test compound 3A and VK5211 on the activities of human liver microsomal cytochrome P450 isozymes (CYP1A2, CYP2C9, CYP2C19, CYP2D6 and CYP3A4) were determined.
(§3) Mixed human liver microsomes (HLM) were purchased from Corning Inc. (Steuben, New York, USA) or XenoTech, LLC. (Lenexa, Kans., USA) or other suppliers, and were stored at a temperature below −60° C. before use.
(§4) First, the test compound (10.0 mM) was gradient diluted to prepare working solution (100×final concentration), and the concentrations of the working solution were: 5.00, 1.50, 0.500, 0.150, 0.0500, 0.0150, 0.00500 mM, and a working solution of each positive inhibitor of P450 isozymes (CYP1A2, CYP2C9, CYP2C19, CYP2D6, and CYP3A4) and a specific substrate mixture thereof (5 in 1) were prepared at the same time; human liver microsomes stored in a refrigerator at a temperature lower than −60° C. were put on ice to thaw, and when all the human liver microsomes were dissolved, the microsomes were diluted with potassium phosphate buffer (PB) to prepare a working solution of a certain concentration (0.253 mg/mL). […] The concentration of metabolites produced by the probe substrate in the sample was determined by liquid chromatography-tandem mass spectrometry (LC-MS/MS) method. […]

CYP2D6 = CYP2D6 (Homo sapiens, UniProt P10635); assay: Human liver microsomal CYP inhibition experiment, CYP2D6; conditions: read-out: IC50 CYP2D6; mixed human liver microsomes, 10 min incubation with NADPH
Method: as §1, §2, §3, §4

CYP3A4 = CYP3A4 (Homo sapiens, UniProt P08684); assay: Human liver microsomal CYP inhibition experiment, CYP3A4; conditions: read-out: IC50 CYP3A4; mixed human liver microsomes, 10 min incubation with NADPH
Method: as §1, §2, §3, §4

CYP2C9 = CYP2C9 (Homo sapiens, UniProt P11712); assay: Human liver microsomal CYP inhibition experiment, CYP2C9; conditions: read-out: IC50 CYP2C9; mixed human liver microsomes, 10 min incubation with NADPH
Method: as §1, §2, §3, §4

CYP1A2 = CYP1A2 (Homo sapiens, UniProt P05177); assay: Human liver microsomal CYP inhibition experiment, CYP1A2; conditions: read-out: IC50 CYP1A2; mixed human liver microsomes, 10 min incubation with NADPH
Method: as §1, §2, §3, §4

Row | Compound | EC50 (androgen receptor (AR)) [µM] | IC50 (CYP2C19) [µM] | IC50 (CYP2D6) [µM] | IC50 (CYP3A4) [µM] | IC50 (CYP2C9) [µM] | IC50 (CYP1A2) [µM]
1 | N#Cc1ccc(N2CC3CC3C[C@@H]2C(O)C(F)(F)F)cc1C(F)(F)F (stereo partly drawn) | 0.00022 | – | – | – | – | –
2 | N#Cc1ccc(N2CCC[C@@H]2[C@@H](O)C(F)(F)F)cc1Cl | – | 0.336 | 14.3 | > 50 | 6.4 | 11.5
